# Measured values: US20080070240A2, “COMPOSITION FOR DEAMINATING DNA AND METHOD OF DETECTING METHYLATED DNA” (Toyo Boseki Kabushiki Kaisha, priority 2004, published 2008)
# Experiment: Measurement of solubility of sulfites in distilled water
# Conditions: for Concentration, Calculated value: calculated from mass and molecular weight
# Description: To a cuvette for measuring absorbance (1×1×4 cm, manufactured by Hitachi High-Technologies Co.), 3 ml of 0.1 N hydrochloric acid (manufactured by Wako Pure Chemical Co., Ltd.) was added. To the cuvette, 30 μl of a sulfite solution diluted with distilled water was added, the cuvette was covered with parafilm, and inverted 3 times to mix the solutions.
# Then, the mass, volume and pH at that time were measured. In addition, with regard to each solution, the sulfite concentration was measured in accordance with the method 0-A described above.
# With regard to the concentration in the table, the calculated value represents the sulfite concentration (M (mol/l)) calculated from the mass and the molecular weight of each dissolved sulfite. In addition, the measured value represents the sulfite concentration (M) measured in accordance with the method 0-A described above.
substance,measurement,setting,value
ammonium sulfite monohydrate,pH of saturated solution,30° C.,8.5
same,"Concentration, Calculated value",30° C.,3.5 M
same,pH of saturated solution,70° C.,8.2
same,"Concentration, Calculated value",70° C.,4.6 M
